This is an account of results in US20210145730A1, “PROCESS FOR PREPARING AN ORAL DISINTEGRATING DOSAGE FORM” (Zeenar Enterprises Pty Ltd, priority 2017, published 2021).

The data set is described as follows: SAXS liquid crystalline phase formation for mixes of GMO and another ingredient immersed in PBS buffer (Example 1). In kind it is physicochemical. The procedure:
The samples were then mixed via a roller mixer at ˜10 RPM at 40° C. for at least 3 days. One week prior to SAXS experiment, 100 mg samples were loaded into a transparent polystyrene 96 well plate (Nunc™) and immersed in 200 μL of PBS buffer (pH 6.8). The samples were stored away from light at ambient temperature, to allow the samples to reach equilibrium. The SAXS/WAXS beamline at Australian Synchrotron, Melbourne, Australia was used to determine the liquid crystalline nanostructure in the samples. A custom-designed plate holder was used to mount the samples plate directly onto the SAXS/WAXS beamline. Scans were automated using a pre-loaded set of position variables based on the well positions within the plate, the exposure time was 5 sec. Data were obtained at ambient temperature (˜22° C.). […] The 2-D diffraction images were recorded on a Pilatus 1M detector and radially integrated using the in-house software “ScatterBrain”.

In the case of Sacharin sodium, the “Liquid crystalline phase formed” value by setting is: (20% and above w/w ingredient in mix with GMO) “mostly lamellar small amount”; (up to 10% w/w ingredient in mix with GMO) “cubic”. For the same substance, the Phase structure entry is “V2(Pn3m)” (Concentration in GMO 1%), “V2(Pn3m)” (Concentration in GMO 5%), “V2(Pn3m) + others” (Concentration in GMO 10%) and “Lamellar” (Concentration in GMO 20%).
